Binding of CDR-mutated scFvs to a peptide of the spike HR2 region

From the AlphaSeq antibody data of Li et al. 2023 (doi:10.1038/s41467-023-39022-2), copy in the FLAb collection.

All variants were tested on one target, the spike HR2 peptide PDVDLGDISGINAS (SARS-CoV-2).

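Phage display of a naive human antibody library on the peptide gave the parent. Designed CDR sequences, proposed from the first random library and measured here. Their group label is 14H_GP_Gibbs (GP: Gaussian process model; Gibbs: Gibbs sampling; a sequence that several methods proposed may carry one label only). The scFvs were displayed on barcoded MATa yeast, the peptide on MATalpha yeast. Pairs that bind mate more often; barcode pairs of the diploids are counted by sequencing. A regression on co-assayed BCL2-family reference pairs converts the normalised counts of each replicate to an apparent Kd. Each pool was mated in six replicate cultures.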

The variants keep the light chain, the linker and the frameworks of Ab-14 (scFv order VH, a 15-residue (Gly4Ser)3 linker, VL).
VH: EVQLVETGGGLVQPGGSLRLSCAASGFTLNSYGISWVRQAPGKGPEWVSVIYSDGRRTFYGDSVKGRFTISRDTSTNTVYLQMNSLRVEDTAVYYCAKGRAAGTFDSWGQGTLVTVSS
VL: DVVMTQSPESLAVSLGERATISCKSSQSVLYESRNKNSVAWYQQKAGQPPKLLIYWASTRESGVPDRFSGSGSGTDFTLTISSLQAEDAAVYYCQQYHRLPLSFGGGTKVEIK

Each variant is given by its three heavy chain CDRs, as the data file delimits them; those of the parent are GFTLNSYGIS, VIYSDGRRTFYGDSVK, GRAAGTFDS. Scale: log10 of Kd in nM, estimated from mating counts; low values are strong binders. "n.d." means that the variant was in the library but no mating with the target was seen in that replicate; the authors take this as a sign of poor binding, and no number exists. A sequence measured in both rounds can read differently, since the two assays cover different ranges.

CDR-H1	CDR-H2	CDR-H3	log10 Kd (nM) by replicate	control signals
GFELNSYGIS	VIYSDGRRTFYGDDVK	GSEAGTFDS	0.09 0.11 0.17 -0.07 -0.09 0.11	1/18 (3.30)
GFTLESYGIS	VIYSDGRRTFYHDSVK	GRAAGTFDT	n.d. n.d. 2.54 1.95 2.46 2.52	1/18 (2.20)
GFELNSYGIS	VIYSDGRRTFYGDMVK	GRTAGTFDV	1.36 0.32 1.08 1.21 0.64 1.48	0/18
GFTLNSYGIS	VIYSDGRRTFYGDSVK	GHVAGTFDV	0.92 0.80 0.29 0.47 0.87 0.64	2/18 (2.37)
GFQLNTYGIS	VIYSDGRRTFYADQVK	GQAAGTFDS	n.d. 2.27 1.13 1.88 1.88 0.66	0/18
GFSLNSYGIS	VIYSDGRRTFYQDNVK	GETAGTFDS	-0.01 0.11 -0.02 0.18 0.73 0.39	0/18
GFDLNTYGIS	VIYSDGRRTMYGDSVK	GRQAGTFDS	-0.20 -0.15 -0.08 -0.10 0.21 0.52	0/18
MFSLNSYGIS	VIYSDGRRTFYKDSVK	GQTAGTFDS	n.d. 1.78 n.d. 2.24 n.d. n.d.	0/18
GFTLNSYGIS	VIYSDGKRTFYGDSVK	GQVAGTFDT	0.38 0.93 0.43 0.19 0.64 0.47	0/18
GFKLNSYGIS	VIYSDGRRTFYSDSVK	GQEAGTFDS	-0.24 -0.37 -0.27 -0.25 -0.17 -0.44	0/18
GFTLNSYGIS	VIYSDGKRTFYSDNVK	GKAAGTFDS	1.40 1.65 0.50 0.98 1.30 0.72	1/18 (1.74)
GFNLNSYGIS	VIYSDGRRTFYGDMVK	GQAAGTFDS	n.d. n.d. n.d. n.d. n.d. n.d.	0/18
GFELNNYGIS	VIYSDGRRTFYADSVK	GKTAGTFDS	-0.01 -0.28 -0.20 -0.19 -0.30 -0.40	0/18
GFPLNEYGIS	VIYSDGRRTFYGDSVK	GRQAGTFDS	n.d. 0.83 1.02 n.d. n.d. 1.81	0/18
GFKLNSYGIS	VIYSDGRRTFYHDSVK	GKNAGTFDS	n.d. n.d. 1.33 1.85 n.d. n.d.	0/18
GFSLNAYGIS	VIYSDGRRTFYGDQVK	GKTAGTFDS	1.73 0.17 0.59 0.37 0.25 0.25	0/18
GFDLNTYGIS	VIYSDGRRTFYKDSVK	GKAAGTFDS	0.29 0.07 -0.01 -0.18 -0.22 -0.19	0/18
GFELNSYGIS	VIYSDGRRTFYADDVK	GSTAGTFDS	-0.04 0.12 -0.26 -0.34 -0.45 -0.26	0/18
GFSLNEYGIS	VIYSDGRRTFYGDKVK	GRAAGTFDS	0.20 0.02 0.06 -0.30 -0.19 -0.42	0/18
GFSLNSYGIS	VIYSDGRRTFYKDSVK	GWAAGTFDN	n.d. n.d. 1.82 1.72 n.d. 1.56	2/18 (1.97)
GFTLNSYGIS	VIYSDGLRTFYGDSVK	GKTAGTFDS	n.d. 1.53 3.95 n.d. n.d. 2.77	2/18 (1.44)
GFDLNKYGIS	VIYSDGRRTFYGDRVK	GRTAGTFDS	1.07 1.84 1.58 n.d. 1.07 2.00	0/18
GFSLNSYGIS	VIYSDGRRTFYGDNVK	GITAGTFDT	-0.01 -0.02 -0.09 -0.04 -0.02 -0.15	0/18
GFWLNSYGIS	VIYSDGRRTFYADSVK	GSAAGTFDS	n.d. 2.34 0.87 n.d. 2.75 n.d.	1/18 (1.33)
GFELNSYGIS	VIYSDGRRTFYGDSVK	GAEAGTFDT	-0.17 0.11 -0.08 -0.25 -0.01 -0.07	0/18
GFTLNSYGIS	VIYSDGQRTFYSDAVK	GEAAGTFDS	1.35 0.62 0.48 1.24 0.51 1.48	0/18
GFNLNSYGIS	VIYSDGRRTFYGDSVK	GRTAGTFDL	1.18 1.20 1.05 1.35 1.74 n.d.	0/18
SFELNSYGIS	VIYSDGRRTFYVDSVK	GQTAGTFDS	n.d. n.d. n.d. n.d. n.d. n.d.	0/18
GFSLNEYGIS	VIYSDGRRTFYHDSVK	GRAAGTFDN	1.00 0.23 0.21 1.42 0.60 2.48	0/18
GFSLNNYGIS	VIYSDGKRTFYGDSVK	GQTAGTFDS	0.17 0.24 0.03 -0.17 -0.05 0.28	0/18
KFGLNEYGIS	VIYSDGRRTFYGDSVK	GKTAGTFDS	n.d. 1.24 1.36 n.d. 1.82 1.56	2/18 (2.29)
GFDLNEYGIS	VIYSDGRRTFYGDSVK	GKEAGTFDS	0.81 0.37 0.04 0.85 0.54 2.59	0/18
MFELNSYGIS	VIYSDGRRTFYGDSVK	GQIAGTFDS	n.d. 1.57 n.d. n.d. n.d. n.d.	0/18
GFWLNEYGIS	VIYSDGRRTFYKDSVK	GQAAGTFDS	1.99 1.36 1.20 1.78 0.89 2.07	1/18 (2.05)
GFDLNSYGIS	VIYSDGRRTFYLDSVK	GNTAGTFDS	0.59 0.31 0.44 0.41 0.53 1.31	1/18 (1.65)
GFTLESYGIS	VIYSDGRRTFYADSVK	GWTAGTFDS	0.95 0.57 1.10 1.50 1.62 1.18	0/18
GFTLNSYGIS	VIYSDGRRTFYGDRVK	GNEAGTFDT	0.21 0.39 0.04 -0.14 0.60 0.42	0/18
GFVLNDYGIS	VIYSDGRRTFYGDSVK	GKTAGTFDS	0.45 -0.25 0.09 0.84 1.64 0.32	0/18
GFTLESYGIS	VIYSDGRRTFYGDGVK	GREAGTFDT	n.d. n.d. n.d. 0.72 0.69 n.d.	0/18
GFTLNEYGIS	VIYSDGRRTFYGQSVK	GRTAGTFDS	n.d. 1.00 0.55 0.01 n.d. 1.05	0/18
GFGLNEYGIS	VIYSDGRRTFYGDSVK	GSAAGTFDS	n.d. 1.66 0.59 -0.63 1.23 n.d.	0/18
GFSLNEYGIS	VIYSDGRRTWYGDSVK	GRSAGTFDS	0.70 0.42 0.65 0.28 0.53 0.41	1/18 (2.30)
PFSLNSYGIS	VIYSDGRRTFYGDSVK	GKTAGTFDS	n.d. n.d. n.d. n.d. n.d. n.d.	0/18
GFTLNSYGIS	VIYSDGRRTFYADDVK	GEAAGTFDN	0.54 0.30 0.40 0.39 0.44 0.57	0/18
GFTLNSYGIS	VIYSDGQRTFYKDSVK	GRTAGTFDS	0.04 0.40 0.34 n.d. 0.64 0.28	0/18
GFTLESYGIS	VIYADGRRTFYGDSVK	GRAAGTFDI	0.85 -0.03 0.77 0.44 0.68 0.66	0/18
GFDLNSYGIS	VIYSDGRRTFYGDSVK	GNAAGTFDR	1.06 0.82 0.73 0.99 0.73 1.05	0/18

Of ten entries with the parent sequence, four were seen in most replicates (averages 0.34 to 2.37), three in one and three in none, so single entries are noisy. Nonspecific signal, from three strains lacking the peptide, appeared in 1% of pairings of all heavy chain designs, centred on 2.08 (5% of these signals below 0.84); values are not corrected for it. Also given: how often the same scFv was detected with the empty control strains, with their mean in brackets. In the paper, a design with two or fewer of six values counts as a poor binder.